Data from ChEMBL document CHEMBL4825694, “Design, synthesis, and biological evaluation of novel sulindac derivatives as partial agonists of PPARγ with potential anti-diabetic efficacy” (Eur J Med Chem, 2021).

Experiments:
[1] = tested on: HepG2; test: Hypolipidemic activity against palmitic acid-induced hyperlipidemia in human HepG2 cells assessed as increase in insulin-induced Akt Akt Ser473 phosphorylation at 1 uM pretreated for 24 hrs followed by insulin challenge by Western blot analysis; format: functional, cell-based
[2] = tested on: HepG2; test: Hypolipidemic activity against palmitic acid-induced hyperlipidemia in human HepG2 cells assessed as increase in insulin-induced Akt phosphorylation at 1 uM pretreated for 24 hrs followed by insulin challenge by Western blot analysis; format: functional, cell-based
[3] = tested on: Mus musculus; test: Antidiabetic activity in high fat diet-induced obese C57/B6 mouse model assessed as reduction in glucose level at 4 mg/kg, measured after 30 days by glucose tolerance test; format: functional, organism-based; conditions: time 30.0 day
[4] = tested on: 3T3-L1; test: Induction of adipogenesis in mouse 3T3-L1 cells at 1 uM measured after 48 hrs by oil-O-red staining based inverted microscopic analysis; format: functional, cell-based
[5] = tested on: HepG2; test: Hypolipidemic activity against palmitic acid-induced hyperlipidemia in human HepG2 cells assessed as increase in insulin-induced Akt thr3O8 phosphorylation at 1 uM pretreated for 24 hrs followed by insulin challenge by Western blot analysis; format: functional, cell-based

Measured: Activity

CN(CCOc1ccc(CC2SC(=O)NC2=O)cc1)c1ccccn1 (stereo not given)
active: all assays above

Calls of active or inactive are those of the source.
